Marks after values point to notes of the source that are not given here.

The subject of one experiment is M. furfur DSM6170. Format: cell-based, Malassezia furfur. On the procedure:
Broth Dilution Antifungal Susceptibility Testing
The sensitivity of relevant fungal strains to peptides was determined using Clinical Laboratory Standard Institute (CLSI; formerly NCCLS) Approved Standards. Yeast susceptibility was tested using “Reference Method for Broth Dilution Antifungal Susceptibility Testing of Yeasts; Approved Standard—Second Edition M27-A”.

In a further experiment the test system is P. acnes DSM1897. It counts as cell-based, Propionibacterium acnes. On the procedure: Broth Dilution Antibacterial Susceptibility Testing
The sensitivity of relevant bacterial strains to peptides was determined using Clinical Laboratory Standard Institute (CLSI; formerly NCCLS) Approved Standards. Bacterial susceptibility was tested using “Methods for Dilution Antimicrobial Susceptibility Tests for Bacteria That Grow […]; Approved Standard—Seventh Edition M7-A7”

Consider `N=C(N)NCCC[C@H](NC(=O)[C@H](CCCNC(=N)N)NC(=O)[C@H](CCCNC(=N)N)NC(=O)[C@H](CCCNC(=N)N)NC(=O)[C@H](CCCNC(=N)N)NC(=O)[C@H](CCCNC(=N)N)NC(=O)[C@H](CCCNC(=N)N)NC(=O)[C@H](CCCNC(=N)N)NC(=O)[C@H](CCCNC(=N)N)NC(=O)[C@H](CCCNC(=N)N)NC(=O)[C@H](CCCNC(=N)N)NC(=O)[C@H](CCCNC(=N)N)NC(=O)[C@H](CCCNC(=N)N)NC(=O)[C@H](CCCNC(=N)N)NC(=O)[C@@H](N)CCCNC(=N)N)C(=O)O` [NP319, RRRRRRRRRRRRRRR], for which the “Antimicrobial Activity (MIC) M. furfur DSM6170” value in the experiment with M. furfur DSM6170 is listed as 0.25 mM. Moreover, the “Antimicrobial Activity (MIC) P. acnes DSM1897” value with P. acnes DSM1897 is recorded as less than 0.0156 mM.
Regarding `NCCCC[C@H](NC(=O)[C@H](CCCCN)NC(=O)[C@@H](N)CCCCN)C(=O)O` [NP342, KKK], the “Antimicrobial Activity (MIC) M. furfur DSM6170” value in the experiment with M. furfur DSM6170 is on record as 1* mM. Also, the “Antimicrobial Activity (MIC) P. acnes DSM1897” value with P. acnes DSM1897 is given as >10* mM.

The record behind these values is patent US20100137222A1, “Basic Peptides and Their Use as Combined Antibacterial-Antifungine Agents” (NOVABIOTICS LIMITED, priority 2007, published 2010).
